Measured values from patent publication US9359313B2, “Use of metformin in combination with a glucokinase activator and compositions comprising metformin and a glucokinase activator” (vTv Therapeutics LLC, priority 2010, dated 2016).

Test: Pharmacokinetic evaluation of three oral UD1 dosage forms in male beagle dogs
Type: in vivo
Details: 100 mg of UD1
Protocol: For all nine dogs, 100 mg of UD1 was administered orally. Each dog was dosed in a fasted state, where food was provided 4 hours following dosing. Blood samples were taken for pharmacokinetic (PK) evaluation at the following time intervals following dosing: 0.5, 1.0, 2.0, 4.0, 6.0, 8.0, 12.0, and 24.0 hours.

PK parameters compared with capsule and tablet: improved PK parameters
Structure (SMILES): CCCO[C@H]1CC[C@H](N(C(=O)Nc2ncc(SCC(=O)O)s2)C2CCCCC2)CC1.CN(C)C(=N)NC(=N)N [Metformin Salt, 1,1-dimethylbiguanide salt of {2-[3-cyclohexyl-3-(trans-4-propoxy-cyclohexyl)-ureido]-thiazol-5-ylsulfanyl}-acetic acid]
